Data published in paper PMC2718698, “The TCL1A Oncoprotein Interacts Directly with the NF-κB Inhibitor IκB” (PLoS ONE, 2009).

T1: AKTβ PH domain, human AKTβ PH(1–118) (human, UniProt P31751 1-118)
T1 sequence (looked up): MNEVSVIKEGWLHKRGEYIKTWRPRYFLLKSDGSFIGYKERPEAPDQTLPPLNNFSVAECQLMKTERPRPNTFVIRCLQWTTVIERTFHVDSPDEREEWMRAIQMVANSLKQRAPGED

T2: IκBα ankyrin domain, human IκB(67–302) (human, UniProt P25963 67-302)
T2 construct: IκBα ankyrin domain, human, residues 67-302; the 20 C-terminal residues are not in the crystal structure 1NFI
T2 sequence (looked up): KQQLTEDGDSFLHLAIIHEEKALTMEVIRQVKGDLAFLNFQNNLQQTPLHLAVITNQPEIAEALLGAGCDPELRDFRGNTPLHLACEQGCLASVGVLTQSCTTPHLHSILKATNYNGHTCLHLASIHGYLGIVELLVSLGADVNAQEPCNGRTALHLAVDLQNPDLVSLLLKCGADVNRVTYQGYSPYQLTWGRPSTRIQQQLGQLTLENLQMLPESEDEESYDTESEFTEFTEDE

B1: T cell leukaemia/lymphoma 1A (TCL1A), purified recombinant human protein (natural protein)
chain: MAECPTLGEAVTDHPDRLWAWEKFVYLDEKQHAWLPLTIEIKDRLQLRVLLRREDVVLGRPMTPTQIGPSLLPIMWQLYPDGRYRSSDSSFWRLVYHIKIDGVEDMLLELLPDD
notes: TCL1A, human; 7 N-terminal residues are not seen in the crystal structure 1JSG
B2: IκB_ank^7CS bound to the NF-κB family member RELA (complex)
chain 1: T2 sequence (looked up) with C69S, C86S, C90S, C101S, C120S, C149S, C173S
chain 2: MDELFPLIFPAEPAQASGPYVEIIEQPKQRGMRFRYKCEGRSAGSIPGERSTDTTKTHPTIKINGYTGPGTVRISLVTKDPPHRPHPHELVGKDCRDGFYEAELCPDRCIHSFQNLGIQCVKKRDLEQAISQRIQTNNNPFQVPIEEQRGDYDLNAVRLCFQVTVRDPSGRPLRLPPVLSHPIFDNRAPNTAELKICRVNRNSGSCLGGDEIFLLCDKVQKEDIEVYFTGPGWEARGSFSQADVHRQVAIVFRTPPYADPSLQAPVRVSMQLRRPSDRELSEPMEFQYLPDTDDRHRIEEKRKRTYETFKSIMKKSPFSGPTDPRPPPRRIAVPSRSSASVPKPAPQPYPFTSSLSTINYDEFPTMVFPSGQISQASALAPAPPQVLPQAPAPAPAPAMVSALAQAPAPVPVLAPGPPQAVAPPAPKPTQAGEGTLSEALLQLQFDDEDLGALLGNSTDPAVFTDLASVDNSEFQQLLNQGIPVAPHTTEPMLMEYPEAITRLVTGAQRPPDPAPAPLGAPGLPNGLLSGDEDFSSIADMDFSALLSQISS
modifications: IkB limits 67-302 and the all-Cys-to-Ser (7CS) change are printed; the seven Cys positions come from the entry. RELA/p65 (pGEX2T) has no printed limits or species: taken as whole human protein …

Legend:
Details in all cases: both partners purified
[1] = target: T1, AKTβ PH domain, human AKTβ PH(1–118); test: ITC; AKT_PH (490 µM) injected into TCL1A (40 µM) or into equimolar TCL1A and IκB_ank^7CS in the cell; 20°C; 20 mM sodium phosphate pH 7.1, 300 mM NaCl, 2 mM EGTA, 1 mM β-mercapto ethanol
[2] = target: T2, IκBα ankyrin domain, human IκB(67–302); test: native gel or EMSA; native PAGE gel shift with purified recombinant proteins; Coomassie stain or Western blot with anti-IκBα
[3] = target: B1; test: ITC; data not shown; TCL1A injected into the cell filled with IκB_ank^7CS bound to RELA; 20°C; 20 mM sodium phosphate pH 7.1, 300 mM NaCl, 2 mM EGTA, 1 mM β-mercapto ethanol

Row | Binder | Kd [1] [µM] | binding result [2] | Kd [3] [µM]
1 | B1 | 7.5 ± 1 | binds | –
2 | B2 | – | – | > 50

Residue numbers refer to the chain shown, from its start.
